Many of the other results were omitted from the sample, so hits are more common in it than they were.
HCMV NEC inh = inhibitors of HCMV UL50-UL53 interaction, biochemical, HTRF; normalized percent inhibition; inhibition, % (no concentration beside the values); HCMV UL50-UL53 nuclear egress complex (human cytomegalovirus); 190,000 tested, 0.15% active; AID 1918969, 2023; in the data active means inhibition above about 27%, passing the limit was not always enough
GIV Gai3 FP = inhibitors of GIV GBA-motif binding to rat Galpha-i3; P08753; Galpha-i3/FITC-GIV peptide fluorescence polarization, 90 min; hits give low values; scaled: aluminum fluoride 0%, vehicle 100%; percent of control (FP), % (test concentration not listed); actives 0.42% (n = 210,000); AID 1224905;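 active = replicate mean at 85% of control or lower, very high polarization wells dropped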;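 also: wells of about 15 µL received 100 nL stock; the first replicate is given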
GIV Gai FP conf = inhibitors of GIV peptide binding to Galpha-i3, confirmation, biochemical, fluorescence polarization, FITC-GIV peptide, rat Galphai3; fluorescence polarization, mP at 100 µM; 580 tested, 38% active; AID 1259350, 2017; hits give low values; shares compounds with GIV Gai3 FP;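 active means inhibition score of 15 or more, meaning 100 minus mean polarization as percent of control over three replicates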;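 further: lower mP means peptide displaced from Galphai3 so more inhibition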
GIV Gai AS conf = inhibitors of GIV binding to Galpha-i3, confirmation, orthogonal assay for GIV-Galpha-i inhibitor project, biochemical, AlphaScreen, His-GIV, GST-Galphai3; AID 1259351, 2017; shares compounds with GIV Gai3 FP; purified proteins, 90 min; hits give low values; AlphaScreen counts at 100 µM; 580 tested, 39% active;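 active means inhibition score at or above a set limit, where the score is 100 minus the three-replicate mean percent of control signal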
Hits are given with their value; . = inactive; / = no result given.

SMILES | HCMV NEC inh | GIV Gai3 FP | GIV Gai FP conf | GIV Gai AS conf
CC(C)/C=C1\CC/C(=C\c2ccc(Cl)cc2)C1=O | / | . | / | /
COc1ccc(N=Cc2ccc(N(C)CCC#N)cc2)cc1 | . | . | / | /
CCN(CC)c1ccc(/C=C2\CC/C(=C\C(C)C)C2=O)cc1 | . | -88 | / | /
O=C(NCCCN1CCC(Cc2ccccc2)CC1)c1ccc2c(c1)ncn2C1CCCCC1 | / | . | / | /
COc1cccc2c1Oc1nc(-c3ccccc3)nc(SCC(=O)N(C)c3ccccc3)c1C2 | / | -21 | / | /
COC(=O)CSc1nc(-c2ccccc2)nc2c1Cc1cccc(OC)c1O2 | . | . | / | /
N#CC1=C(N)C(C#N)(C#N)C(c2ccccc2Cl)C2CN(Cc3ccccc3)CC=C12 (stereo not drawn) | / | . | / | /
N#CC1=C(N)C(C#N)(C#N)C(c2ccco2)C2CN(Cc3ccccc3)CC=C12 (stereo not drawn) | . | -43 | / | /
CC1CC(C)CN(c2nnc(NC(=O)c3csc4c3CCCC4)s2)C1 (stereo not drawn) | . | . | / | /
Cc1ccc(C)c(OCCn2cc(/C=C3\C(=N)N4N=C(S(C)(=O)=O)SC4=NC3=O)c3ccccc32)c1 | . | . | / | /
N=C1/C(=C\c2cn(CCOc3ccccc3Cl)c3ccccc23)C(=O)N=C2SC=NN12 | . | 11 | / | /
COc1ccc(-c2nnc(SCC(=O)NC(C)(C)C)n2C(C)C)cc1 | . | / | / | /
CC1(C(=O)NC2CCCC2)Cn2c(cc3ccsc32)C(=O)N1c1ccc(Cl)cc1 (stereo not drawn) | . | . | / | /
CCCCCCc1cc2cc(C#N)c(=O)oc2cc1O | . | -3.8 | / | /
CCN(CC)c1ccc2cc(C#N)c(=O)oc2c1 | . | / | / | /
CCOC(=O)c1c(C)[nH]c(C(=O)N2CCC(C(C)C(=O)N3CCN(c4ccccn4)CC3)CC2)c1C (stereo not drawn) | . | . | / | /
N#Cc1ccccc1NC(=O)c1cccs1 | . | . | / | /
CC1(C)CC(=O)C2=C(C1)Nc1ccccc1S2 | . | 78 | . | .
CC1(C)CC(=O)C2=C(C1)Nc1ccccc1NC2c1ccccc1F (stereo not drawn) | . | . | / | /
CC(=O)NC(C)(C)C(=O)N1CCC[C@H]1C(=O)NC(C)(C)C(=O)N[C@@H](C)C(=O)NC(C)(C)C(=O)N[C@@H](C)C(=O)N[C@@H](CCC(N)=O)C(=O)NC(C)(C)C(=O)N[C@H](C(=O)NC(C)(C)C(=O)NCC(=O)N[C@@H](CC(C)C)C(=O)NC(C)(C)C(=O)N1CCC[C@H]1C(=O)N[C@H](C(=O)NC(C)(C)C(=O)NC(C)(C)C(=O)N[C@@H](CCC(=O)O)C(=O)N[C@@H](CCC(N)=O)C(=O)N[C@H](CO)Cc1ccccc1)C(C)C)C(C)C | . | / | / | /
Clc1ccc(Cc2nnc3sc(-c4ccc5ccccc5n4)nn23)cc1 | . | . | / | /
O=C1CN(C(=O)CSc2ncc(C(F)(F)F)cc2Cl)c2ccccc2N1 | . | / | / | /
O=C1CN(C(=O)CSCc2c(F)cccc2Cl)c2ccccc2N1 | . | . | . | .
O=C1/C(=C/c2cccnc2)CCC/C1=C\c1cccnc1 | . | 49 | 53 | .
O=C1/C(=C/c2cccnc2)CC/C1=C\c1cccnc1 | / | . | / | /
SMILES | HCMV NEC inh | GIV Gai3 FP | GIV Gai FP conf | GIV Gai AS conf
CC(C)C(NS(=O)(=O)c1ccc2c(c1)OCCO2)C(=O)OCN1C(=O)c2ccccc2C1=O (stereo not drawn) | . | / | / | /
Cn1c(CN2CCN(C(=O)c3ccc(Cl)cc3)CC2)nc2cc(C(=O)N3CCCC3)ccc21 | / | . | / | /
CC(C)NC(=O)CCCCn1c(=O)c2ccccc2n(CC(=O)Nc2ccccc2Cl)c1=O | . | . | / | /
CC(C)Nc1ccc(-c2nc(-c3ccco3)no2)cc1[N+](=O)[O-] | . | . | . | .
CCCNc1ccc(-c2nc(-c3ccco3)no2)cc1[N+](=O)[O-] | . | . | / | /
COc1ccc(/C=C2\C=C(c3ccccc3)N(c3ccc(Br)cc3C)C2=O)cc1Br | / | . | / | /
COc1ccc(/C=C2\C=C(c3ccccc3)N(c3ccc(Br)cc3C)C2=O)cc1 | / | 34 | . | .
Cn1c(/N=C/c2c(O)ccc3ccccc23)nc2ccc(Br)cc21 | . | 23 | 25 | 14331
Cc1cc(N=Cc2c(O)ccc3ccccc23)no1 | 103 | -9.8 | 13 | 20466
Cc1ccc(O)c(C=Nc2cc(C)on2)c1 | . | . | / | /
CCc1ccc(N=Cc2c(O)ccc3ccccc23)cc1 | . | / | / | /
CC1CCN(S(=O)(=O)c2ccc3c(c2)N(CC(=O)N(C)c2ccccc2)C(=O)CC(C)S3)CC1 (stereo not drawn) | . | . | / | /
C/C(=N/NC(=O)C(F)(F)F)c1cccs1 | . | . | / | /
C/C(=N\NC(=O)C(F)(F)F)c1ccccc1O | . | . | . | .
COc1cc(C(=O)OCCN2C(=O)c3cccc4c(N5CCOCC5)ccc(c34)C2=O)cc(OC)c1OC | . | . | / | /
COc1ccc2c(C)[nH]c(=O)cc2c1 | / | . | / | /
CCCc1[nH]c(=O)cc2cc(OC)c(OC)cc12 | . | 77 | . | 23102
Cn1c(-c2ccccc2)c(/C=N/NC(=O)c2cccs2)c2ccccc21 | . | / | / | /
Cn1c(-c2ccccc2)c(/C=C2/C(=O)Oc3ccccc3C2=O)c2ccccc21 | / | 44 | . | .
N#Cc1c(-c2ccccc2)cc(C2CC2)c(C#N)c1N | . | / | / | /
CC(C)CCNC(=O)c1cc(-c2ccc(Br)s2)nc2ccccc12 | . | . | . | .
CCCCN(C)CCCNC(=O)c1cc(-c2ccc(Br)s2)nc2ccccc12 | . | . | / | /
CCCS(=O)(=O)N1CCCC(C(=O)NCCCN2CCC(Cc3ccccc3)CC2)C1 (stereo not drawn) | / | . | / | /
On1c2c(c3c4nonc4ccc31)CCCC2 | . | 50 | 42 | 10129
COn1c2c(c3c4nonc4ccc31)CCCC2 | . | . | / | /
SMILES | HCMV NEC inh | GIV Gai3 FP | GIV Gai FP conf | GIV Gai AS conf
O=C(O)c1ccccc1C(=O)NCc1csc2ccccc12 | . | . | / | /
Cc1cccc(NC(=O)c2oc3c(c2C)-c2[nH]ncc2CC3)c1C | . | . | / | /
Cc1c(C(=O)NC(C)C)oc2c1-c1[nH]ncc1CC2 | 70 | 69 | 51 | 26222
COc1ccc2c(c1)C(C)CC(C)[N+]2(C)C (stereo not drawn) | . | / | / | /
CCn1c(N2CCC(C(=O)N3CCCCC3)CC2)cc(=O)n(C)c1=O | / | . | / | /
Cn1nc(C(=O)N2CCN(c3ccc(Cl)cc3)CC2)c2c1-c1ccccc1SC2 | . | . | / | /
Cc1ccc2c(c1)-c1c(c(C(=O)N3CCN(c4cc(C)ccc4C)CC3)nn1C)CS2 | / | 42 | 36 | .
Fc1ccc(CN2CCc3nc(N4CCN(c5ccccc5F)CC4)ncc3C2)c(F)c1 | / | . | / | /
O=C1CCCc2nc(N3CCN(c4ccccc4F)CC3)ncc21 | . | 82 | . | .
NC(=O)CN1C(=O)Cc2ccccc2C1=O | . | 63 | 58 | 12845
O=C(O)CCN1C(=O)Cc2ccccc2C1=O | . | / | / | /
O=C(C1CCCC1)N1CCCC1c1nc2ccccc2s1 (stereo not drawn) | . | / | / | /
N#Cc1c(Sc2ccccc2)ncc2cc3ccccc3nc12 | . | 79 | . | .
CSc1nc(C)nc(Sc2ccccc2)c1C#N | . | . | / | /
